The target in this test is T1, recombinant human TNFα (human, UniProt P01375 77-233, 125I label in the receptor binding assay).
T1 construct: also called huTNFα; tumor necrosis factor alpha
The test can be described thus: inhibition of 125I-TNFα (5 ng/ml) binding to plate-coated p55-sf2; cA2 spiked into anti-IL-18 control supernatant, preincubated with 125I-TNFα, cpm bound counted.

Amino acid sequences for entries named in this document (tags omitted). Residues count along the entry.
UniProt P01375, 77-233 limits assumed: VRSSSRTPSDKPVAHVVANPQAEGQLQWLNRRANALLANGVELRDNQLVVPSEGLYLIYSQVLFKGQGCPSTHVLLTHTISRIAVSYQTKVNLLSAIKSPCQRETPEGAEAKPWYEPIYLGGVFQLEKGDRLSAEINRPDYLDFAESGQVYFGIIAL

B1: chimeric antibody cA2 (Remicade) (antibody, V domains shown)
VH: EVKLEESGGGLVQPGGSMKLSCVASGFIFSNHWMNWVRQSPEKGLEWVAEIRSKSINSATHYAESVKGRFTISRDDSKSAVYLQMTDLRTEDTGVYYCSRNYYGSTYDYWGQGTTLTVS
VL: DILLTQSPAILSVSPGERVSFSCRASQFVGSSIHWYQQRTNGSPRLLIKYASESMSGIPSRFSGSGSGTDFTLSINTVESEDIADYYCQQSHSWPFTFGSGTNLEVK
Turning to B1, the “IC50 (read off the curve)” value is ~10 ng/mL.

The record behind these values is US20230040065A1 (Janssen / Centocor, published 2023).
